Data: ChEMBL document CHEMBL1124876, “Organic phosphorus compounds. 5. (4-Benzothiazol-2-ylbenzyl)amidophosphonate as potent calcium antagonistic vasodilators” (J Med Chem, 1990)

How the values were obtained:
Canis familiaris [1] = assay: Coronary vasodilatory activity as increase in coronary flow was determined in dogs after 0.1 mg/kg i.v. administration of the compound; (SE +/- 5.1); conditions: route intravenous
Canis familiaris [2] = assay: Coronary vasodilatory activity as increase in coronary flow was determined in dogs after 0.1 mg/kg i.v. administration of the compound; (SE +/- 10.8); conditions: route intravenous

SMILES	Max increase (Canis familiaris [1])	Max increase (Canis familiaris [2])
CCOP(=O)(Cc1ccc(-c2nc3ccccc3s2)cc1)N1CCNC1=O (configuration not stated)	17.3%	
CCOP(=O)(Cc1ccc(-c2nc3ccccc3s2)cc1)N1CCN(C)C1=O (configuration not stated)		47.7%
